Measurements: US6372772B1, “Inhibitors of redox signaling and methods of using same” (Prolx Pharmaceuticals Corporation, priority 1997, dated 2002)

Target: T1, thioredoxin reductase/thioredoxin (Homo sapiens, UniProt Q16881)
T1 sequence (Q16881 1-499 isoform Q16881-5): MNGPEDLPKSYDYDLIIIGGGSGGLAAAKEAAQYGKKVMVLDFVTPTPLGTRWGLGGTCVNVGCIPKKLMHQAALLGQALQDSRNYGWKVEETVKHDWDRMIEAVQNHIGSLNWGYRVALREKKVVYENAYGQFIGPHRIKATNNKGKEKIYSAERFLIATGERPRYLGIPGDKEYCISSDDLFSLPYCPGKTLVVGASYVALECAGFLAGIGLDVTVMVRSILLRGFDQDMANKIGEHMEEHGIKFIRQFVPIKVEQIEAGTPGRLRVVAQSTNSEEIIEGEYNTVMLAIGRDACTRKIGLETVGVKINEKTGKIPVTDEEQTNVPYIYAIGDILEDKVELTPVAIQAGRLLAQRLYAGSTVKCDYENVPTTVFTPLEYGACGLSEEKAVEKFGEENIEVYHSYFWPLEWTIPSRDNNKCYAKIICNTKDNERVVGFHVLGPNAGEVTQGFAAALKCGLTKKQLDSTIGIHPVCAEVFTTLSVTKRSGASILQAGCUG
Assay: thioredoxin reductase/thioredoxin-dependent insulin reduction assay
Format: biochemical
Settings: Table III; read-out: in vitro IC50 TR/Trx (μg/ml) (converted)

`CCC(C)SSc1ncc[nH]1` (stereo not shown) [IV-2, 1-methylpropyl 2-imidazolyl disulfide] showed an IC50 of 37.2 µM.
